Reference: US20210269519A1 (University of Texas, published 2021)

T1: Flag-human LMBR1L-V5 (N-terminus FLAG-tagged and C-terminus V5-tagged recombinant human LMBR1L) (human, UniProt Q6UX01 1-489)
T1 construct: Probe of the ProtoArray Human Protein Microarray V5.1, purified from HEK293T cells on anti-FLAG M2 gel and used at 50 ug/ml
T1 sequence: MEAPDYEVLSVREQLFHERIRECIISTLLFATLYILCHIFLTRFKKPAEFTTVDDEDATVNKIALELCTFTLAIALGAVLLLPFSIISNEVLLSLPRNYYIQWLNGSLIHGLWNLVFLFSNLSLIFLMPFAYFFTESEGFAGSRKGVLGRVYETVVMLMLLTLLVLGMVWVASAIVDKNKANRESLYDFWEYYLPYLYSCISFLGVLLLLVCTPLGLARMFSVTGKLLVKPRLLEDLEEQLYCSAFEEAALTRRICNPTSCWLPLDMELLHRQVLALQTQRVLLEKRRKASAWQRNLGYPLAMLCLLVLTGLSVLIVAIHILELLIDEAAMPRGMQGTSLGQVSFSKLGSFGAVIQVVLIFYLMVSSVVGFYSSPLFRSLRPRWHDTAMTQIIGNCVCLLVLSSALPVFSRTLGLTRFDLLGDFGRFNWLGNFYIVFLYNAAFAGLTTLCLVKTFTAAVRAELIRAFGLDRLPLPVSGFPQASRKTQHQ

T2: Flag tagged-human Lmbr1l (limb region 1 like, LMBR1L) (human, UniProt Q6UX01 1-489)
T2 construct: It carries a Flag tag; also called h-LMBR1L; LIMR
T2 sequence: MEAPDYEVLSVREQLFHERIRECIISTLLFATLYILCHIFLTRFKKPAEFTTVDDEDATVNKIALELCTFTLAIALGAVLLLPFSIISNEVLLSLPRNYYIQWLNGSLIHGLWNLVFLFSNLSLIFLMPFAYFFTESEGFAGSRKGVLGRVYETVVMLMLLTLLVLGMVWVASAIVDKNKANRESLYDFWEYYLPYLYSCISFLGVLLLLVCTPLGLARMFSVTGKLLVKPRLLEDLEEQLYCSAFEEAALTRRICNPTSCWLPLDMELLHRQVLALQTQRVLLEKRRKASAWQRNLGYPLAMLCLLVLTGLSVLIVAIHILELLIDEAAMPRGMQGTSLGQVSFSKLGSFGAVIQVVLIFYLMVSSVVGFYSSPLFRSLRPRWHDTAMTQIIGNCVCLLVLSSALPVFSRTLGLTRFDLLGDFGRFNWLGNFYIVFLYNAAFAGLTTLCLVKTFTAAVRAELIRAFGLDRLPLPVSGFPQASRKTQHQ


Key:
[1] = biological target: T1, Flag-human LMBR1L-V5 (N-terminus …); assay: ProtoArray human protein microarray probed with Flag-human LMBR1L-V5
Description: FIGS. 4A-4C. LMBR1L negatively regulates Wnt signaling. (A, B) LMBR1L physically interacts with components of the Wnt signaling pathway. […] A construct expressing both N-terminus FLAG-tagged and C-terminus V5-tagged human LMBR1L was transfected into HEK293T cells and the recombinant protein was purified using anti-FLAG M2 agarose beads. Binding between recombinant human LMBR1L and purified human proteins printed in duplicate on the microarray slide was probed with anti-V5-Alexa 647 antibody. (B) HEK293T cells were transfected with either FLAG-tagged GSK-3β, β-catenin, ZNRF3, RNF43, FZD6, LRP6, DVL2, or empty vector (EV) and HA-tagged LMBR1L. Lysates were subsequently immunoprecipitated using anti-FLAG M2 agarose and immunoblotted with antibodies against HA or FLAG. (C) Immunoblot analysis of β-catenin, phospho-β-catenin, AXIN1, DVL2, GSK-3α/β, phospho-GSK-3β, CK1, β-TrCP, c-Myc, p53, p21, caspase-3, cleaved caspase-3, caspase-9, cleaved caspase-9, and GAPDH in TCLs of pooled CD8⁺ T cells from Lmbr1l^{-/-} or wild-type littermates. Data are representative of three-to-five independent experiments.
The ProtoArray Human Protein Microarray V5.1 (Invitrogen) was used to identify human Lmbr1l-interacting proteins according to manufacturer's instructions. […]

[2] = biological target: T2, Flag tagged-human Lmbr1l (limb region 1 …); assay: anti-FLAG co-IP from HEK293T lysate + LC-MS/MS, vs empty vector
Procedure: We sought to understand the immune function of LMBRL1 by identifying LMBR1L-interacting proteins using co-immunoprecipitation (co-IP) combined with mass spectrometry (MS) analysis. Among the 1,623 candidate proteins identified as putative LMBR1L interactors (Dataset S1), 25 proteins were >50-fold more abundant in the LMBR1L co-IP product relative to empty vector control (Table 1).
Co-immunoprecipitation and mass spectrometry were performed to identify Lmbr1l-interacting proteins as described below. Transfection was performed in HEK293T cells (ATCC) using Lipofectamine 2000 reagent (Life technologies) with plasmid encoding Flag tagged-human Lmbr1l or empty vector control. Forty-eight hours after transfection, cells were harvested in NP-40 lysis buffer for 45 min at 4° C. […] The proteins were eluted with SDS sample buffer and heated at 95° C. for 10 min. Lysates were loaded onto 12% (wt/vol) SDS-PAGE gel and run 1 cm into the separation gel. The gel was stained with Coomassie blue (Thermo Fisher) and whole stained lanes were subjected to mass spectrometry analysis (LCMS/MS) as described previously (33).

Row | Binder | binding result [1] | Ratio h-LMBR1L/h-vector [2] [ratio]
1 | GSK-3β (purified human protein printed on the ProtoArray Human Protein Microarray V5.1) (enzyme, UniProt P49841 1-420, looked up) MSGRPRTTSFAESCKPVQQPSAFGSMKVSRDKDGSKVTTVVATPGQGPDRPQEVSYTDTKVIGNGSFGVVYQAKLCDSGELVAIKKVLQDKRFKNRELQIMRKLDHCNIVRLRYFFYSSGEKKDEVYLNLVLDYVPETVYRVARHYSRAKQTLPVIYVKLYMYQLFRSLAYIHSFGICHRDIKPQNLLLDPDTAVLKLCDFGSAKQLVRGEPNVSYICSRYYRAPELIFGATDYTSSIDVWSAGCVLAELLLGQPIFPGDSGVDQLVEIIKVLGTPTREQIREMNPNYTEFKFPQIKAHPWTKVFRPRTPPEAIALCSRLLEYTPTARLTPLEACAHSFFDELRDPNVKLPNGRDTPALFNFTTQELSSNPPLATILIPPHARIQAAASTPTNATAASDANTGDRGQTNNAASASASNST | binds | –
2 | transitional endoplasmic reticulum ATPase (TERA known as VCP) (enzyme, Identified by LC-MS/MS in the LMBR1L co-IP; also called VCP (TERA)) not shown | – | 120
